{"source": "ChEMBL document CHEMBL1681701", "about": "“Huprines as a new family of dual acting trypanocidal-antiplasmodial agents” (Bioorg Med Chem, 2011)", "test_system": "L6", "assay": "Cytotoxicity against rat L6 cells after 6 days by Alamar blue assay", "format": "cell-based", "summary_of_the_method": "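Rat skeletal myoblast L6 cells seeded at 1 × 10^4 ml−1 in growth medium with a range of compound concentrations and held 6 days at 37 °C. Alamar Blue was then added and fluorescence read after a further 8 h. IC50 is the mean of triplicate experiments ± SEM.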"}
{"smiles": "CCCCC1=CC2Cc3nc4ccccc4c(N)c3C(C1)C2", "note": "(stereo unspecified)", "values": [{"measurement": "IC50", "result": 6.75, "unit": "µM"}]}
